Format in all cases: biochemical
One assay concerns the target AKT1 (Homo sapiens, UniProt P31749). Kind of assay: In vitro enzyme activity test (HTRF kinEASE TK), AKT1. Conditions: read-out: AKT1 enzyme activity IC50, ATP 2 μM, enzyme 0.6 ng/well, reaction 50 min.
In a further assay the target is AKT2 (Homo sapiens, UniProt P31751). The experiment in a line: In vitro enzyme activity test (HTRF kinEASE TK), AKT2. Conditions: read-out: AKT2 enzyme activity IC50, ATP 20 μM, enzyme 0.1 ng/well, reaction 50 min.
In a further assay the target is AKT3 (Homo sapiens, UniProt Q9Y243). Kind of assay: In vitro enzyme activity test (HTRF kinEASE TK), AKT3. The settings on record: read-out: AKT3 enzyme activity IC50, enzyme 0.3 ng/well, reaction 50 min.

Sequences of proteins named here, by UniProt entry; tags and fusion partners are left off.
UniProt P31749, whole entry: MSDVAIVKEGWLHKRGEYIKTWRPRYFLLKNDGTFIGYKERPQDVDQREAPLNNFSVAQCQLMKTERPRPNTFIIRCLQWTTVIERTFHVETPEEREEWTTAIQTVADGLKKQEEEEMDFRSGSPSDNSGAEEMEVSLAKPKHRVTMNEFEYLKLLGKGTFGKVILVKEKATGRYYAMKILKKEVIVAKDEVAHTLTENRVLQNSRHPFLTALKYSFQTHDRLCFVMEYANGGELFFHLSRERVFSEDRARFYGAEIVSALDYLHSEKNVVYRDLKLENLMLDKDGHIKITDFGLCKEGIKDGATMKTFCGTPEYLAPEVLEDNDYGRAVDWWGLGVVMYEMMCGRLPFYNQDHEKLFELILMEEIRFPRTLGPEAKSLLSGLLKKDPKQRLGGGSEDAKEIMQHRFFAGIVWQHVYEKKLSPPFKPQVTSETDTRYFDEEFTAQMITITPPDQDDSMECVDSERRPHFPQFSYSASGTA
UniProt P31751, whole entry: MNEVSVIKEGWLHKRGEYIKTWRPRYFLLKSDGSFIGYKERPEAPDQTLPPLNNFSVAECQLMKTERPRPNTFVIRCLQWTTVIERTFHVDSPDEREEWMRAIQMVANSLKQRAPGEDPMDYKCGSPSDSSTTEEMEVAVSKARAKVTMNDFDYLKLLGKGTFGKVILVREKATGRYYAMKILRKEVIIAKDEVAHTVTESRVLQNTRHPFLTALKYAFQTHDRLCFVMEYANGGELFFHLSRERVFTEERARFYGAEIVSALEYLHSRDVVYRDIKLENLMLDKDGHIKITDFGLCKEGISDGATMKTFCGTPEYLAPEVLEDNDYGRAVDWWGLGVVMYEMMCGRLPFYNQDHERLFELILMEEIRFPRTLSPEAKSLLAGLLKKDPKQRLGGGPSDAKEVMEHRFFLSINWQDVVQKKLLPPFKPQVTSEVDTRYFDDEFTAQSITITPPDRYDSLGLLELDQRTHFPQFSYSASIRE
UniProt Q9Y243, whole entry: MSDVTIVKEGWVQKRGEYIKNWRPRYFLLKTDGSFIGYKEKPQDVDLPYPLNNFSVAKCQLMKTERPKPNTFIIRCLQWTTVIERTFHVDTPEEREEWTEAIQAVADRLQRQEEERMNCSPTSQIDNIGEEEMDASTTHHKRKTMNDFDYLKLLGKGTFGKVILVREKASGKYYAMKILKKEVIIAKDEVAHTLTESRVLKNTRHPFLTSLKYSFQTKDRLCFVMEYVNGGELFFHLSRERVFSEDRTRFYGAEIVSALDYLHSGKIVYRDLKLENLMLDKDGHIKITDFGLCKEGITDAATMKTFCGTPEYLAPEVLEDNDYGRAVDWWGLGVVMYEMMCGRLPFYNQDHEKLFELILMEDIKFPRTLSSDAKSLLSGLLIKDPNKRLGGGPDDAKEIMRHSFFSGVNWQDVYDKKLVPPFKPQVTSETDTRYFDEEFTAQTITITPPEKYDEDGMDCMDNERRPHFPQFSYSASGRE

This is an account of results in patent US12617784B2, “AKT inhibitor” (Nanjing Chia Tai Tianqing Pharmaceutical Co., Ltd., priority 2019, dated 2026).

As to `CC(C)NC[C@@H](C(=O)N1C2CCC1CN(c1ncnc3c1N(CC#N)CC(=O)N3)C2)c1ccc(Cl)cc1`, the results for the IC50 at AKT1, on AKT2 and on AKT3 were 40 nM, 227 nM and 1.1 nM, respectively.
